Results on one compound are retold here after ChEMBL document CHEMBL1130045, “7-Spiroindanyl derivatives of naltrexone and oxymorphone as selective ligands for delta opioid receptors” (J Med Chem, 1997).

The chains behind the UniProt entries cited, without tags or fusion partners. Where a name states a change or a piece, a line headed by the entry shows the natural chain unless it says otherwise.
UniProt P97266, whole entry: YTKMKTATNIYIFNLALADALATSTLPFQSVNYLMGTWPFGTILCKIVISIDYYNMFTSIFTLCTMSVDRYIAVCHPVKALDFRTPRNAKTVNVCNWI
UniProt P41144: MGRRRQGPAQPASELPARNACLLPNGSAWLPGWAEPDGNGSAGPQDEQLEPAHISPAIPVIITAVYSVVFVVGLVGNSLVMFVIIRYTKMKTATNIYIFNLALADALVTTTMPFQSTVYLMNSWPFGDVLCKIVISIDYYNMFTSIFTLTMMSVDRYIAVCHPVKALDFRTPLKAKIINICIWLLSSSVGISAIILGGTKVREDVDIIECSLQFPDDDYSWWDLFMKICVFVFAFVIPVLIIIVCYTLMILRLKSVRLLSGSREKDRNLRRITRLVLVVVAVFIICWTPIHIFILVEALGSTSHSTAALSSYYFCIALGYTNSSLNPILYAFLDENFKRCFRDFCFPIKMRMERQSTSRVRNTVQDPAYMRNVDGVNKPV

Structures are written as SMILES.

Experiment [1] deals with Mu-type opioid receptor (Cavia porcellus) (UniProt P97266). The experiment in a line: Antagonist activity against electrically stimulated guinea pig ileum using morphine (M) as mu opioid receptor agonist. It counts as functional, tissue-based. Put shortly: (§1)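 Electrically stimulated guinea pig ileum (morphine, μ; ethylketazocine, κ) or mouse vas deferens (DADLE, δ). The test ligand is incubated with the tissue for 15 min, then the agonist curve is run with 100 nM antagonist present. Read-out is the IC50 ratio: agonist IC50 with antagonist divided by the control IC50 in the same preparation. Three or more replicates.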

The target of experiment [2] is Kappa-type opioid receptor (Cavia porcellus) (UniProt P41144). The experiment in a line: Antagonist activity against electrically stimulated guinea pig ileum using ethylketazocine (EK) as kappa opioid receptor agonist. It counts as functional, tissue-based. Put shortly: as §1

As for `O=C1[C@@H]2Oc3c(O)ccc4c3[C@@]23CCN(CC2CC2)[C@H](C4)[C@]3(O)CC12Cc1ccccc1C2`, the IC50 ratio is 24.9 in experiment [1] and 1.95 in experiment [2].
